Results: PubChem BioAssay AID434973 (Sanford-Burnham Center for Chemical Genomics, 2010)
The entries are a selection whose mix differs from that of the whole data set. Some salts and complexes are drawn in separate pieces, as the source files them; their charges need not balance. Active and inactive are the calls of the source.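 The calls were made as follows: active = inhibition above about 50% at the single test dose (limit read from the data); inactive = the rest.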

Sequences of proteins named here, by UniProt entry; tags and fusion partners are left off. Residues count along the entry.
UniProt Q9BQF6, 706-1050 limits assumed: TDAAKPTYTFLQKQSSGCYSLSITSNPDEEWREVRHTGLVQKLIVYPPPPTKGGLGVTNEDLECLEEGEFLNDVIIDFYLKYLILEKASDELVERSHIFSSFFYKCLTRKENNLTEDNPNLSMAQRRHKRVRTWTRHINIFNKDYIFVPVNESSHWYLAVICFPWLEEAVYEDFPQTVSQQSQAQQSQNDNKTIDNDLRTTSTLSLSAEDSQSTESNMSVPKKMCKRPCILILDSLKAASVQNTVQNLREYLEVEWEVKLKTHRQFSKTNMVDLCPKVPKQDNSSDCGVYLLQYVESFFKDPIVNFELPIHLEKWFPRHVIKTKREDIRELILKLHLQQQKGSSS

Each compound was assayed against Sentrin-specific protease 7 (Homo sapiens) (UniProt Q9BQF6) (assay: SENP7 protease inhibitors, primary screen, biochemical, luminescence, uHTS (AID 434973;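 also: plate controls were DMSO with enzyme for no effect and no enzyme buffer wells for full effect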)). Conditions: recombinant SENP7, Z-RLRGG-aminoluciferin luminescence, 40 min; at 5 µM; hits give high values.

| SMILES | inhibition |
| --- | --- |
| COc1ccccc1OP(C)(=O)Nc1ccc(C)c(C)c1 (configuration not stated) | inactive: -1.5% |
| COc1ccc(OP(C)(=O)Nc2ccccc2Br)cc1 (configuration not stated) | inactive: -1.89% |
| Cc1cc(C)cc(OP(C)(=O)Nc2cccc(C(F)(F)F)c2)c1 (configuration not stated) | inactive: -3.32% |
| CP(=O)(Nc1ccc(Cl)cc1Cl)Oc1ccccc1 (configuration not stated) | inactive: 0.935% |
| CP(=O)(OCCOc1ccccc1)OCCOc1ccccc1 | inactive: 2.34% |
| Cc1nc2ccc3ccccc3c2o1.O=[N+]([O-])c1cc([N+](=O)[O-])c(O)c([N+](=O)[O-])c1 | inactive: 8.51% |
| COc1ccc(OP(C)(=O)Nc2ccccn2)cc1 (configuration not stated) | inactive: 4.58% |
| CN(C)CCOC(=O)C(O)(c1ccccc1)C1CCCC1 (configuration not stated) | inactive: -4.64% |
| COc1ccccc1OP(C)(=O)Nc1ccc(Br)cc1 (configuration not stated) | inactive: -5.33% |
| CP(=O)(Nc1ccccn1)Oc1ccccc1 (configuration not stated) | inactive: 2.99% |
| COc1ccccc1OP(C)(=O)Nc1ccc(C)cc1C (configuration not stated) | inactive: 14.5% |
| CCc1ccc(OP(C)(=O)O)cc1 | inactive: 1.12% |
| Cc1c(NP(C)(=O)Oc2ccc(C(C)C)cc2)c(=O)n(-c2ccccc2)n1C (configuration not stated) | inactive: 4.43% |
| O=[N+]([O-])c1cc([N+](=O)[O-])c(Nc2ccccn2)c([N+](=O)[O-])c1 | inactive: 25.5% |
| COc1ccccc1OP(C)(=O)Nc1c(C)n(C)n(-c2ccccc2)c1=O (configuration not stated) | inactive: 8.14% |
| O=C(OCCCN1CCCC1)C(O)(c1ccccc1)C1CCCCC1 (configuration not stated) | inactive: -1.51% |
| CP(=O)(Oc1ccccc1)N1CCOC1=O (configuration not stated) | inactive: 2.78% |
| CCc1ccc(OP(C)(=O)Nc2cccnc2)cc1 (configuration not stated) | inactive: -6.89% |
| CCN(CC)CC(O)COC(=O)C(O)(c1ccccc1)C1CCCCC1 (configuration not stated) | inactive: -1.38% |
| COc1ccc(OP(C)(=O)Nc2ccc(Br)cc2)cc1 (configuration not stated) | inactive: 2.58% |
| CN(C)C(=O)c1c([N+](=O)[O-])cc([N+](=O)[O-])cc1[N+](=O)[O-] | inactive: 17.4% |
| COc1ccccc1OP(C)(=O)Nc1ccccc1Br (configuration not stated) | inactive: 3.51% |

| SMILES | inhibition |
| --- | --- |
| CC(C)(C)c1ccc(OP(C)(=O)O)cc1 | inactive: -0.0661% |
| CP(=O)(Nc1ccc(Cl)cc1)Oc1ccc(F)cc1 (configuration not stated) | inactive: 2.22% |
| CCOC(=O)c1ccc(NP(C)(=O)Oc2ccc(Cl)cc2)cc1 (configuration not stated) | inactive: 2.68% |
| CP(=O)(OC12CC3CC(CC(C3)C1)C2)OC12CC3CC(CC(C3)C1)C2 | inactive: 2.06% |
| Nc1ccc2c(ccc3cccnc32)n1.O=[N+]([O-])c1cc([N+](=O)[O-])c(O)c([N+](=O)[O-])c1 | inactive: 3.18% |
| CN(C)CCOC(=O)C(O)(c1ccccc1)C1CCCCC1 (configuration not stated) | inactive: 4.97% |
| COc1ccc(NP(C)(=O)Oc2ccccc2OC)cc1 (configuration not stated) | inactive: -4.17% |
| COc1ccc(OP(C)(=O)Nc2cccc(Br)c2)cc1 (configuration not stated) | inactive: 5.47% |
| O=[N+]([O-])c1cc([N+](=O)[O-])c(NCC2CCS(=O)(=O)C2)c([N+](=O)[O-])c1 (configuration not stated) | inactive: -11.4% |
| CCOP(C)(=S)SCC(=O)NC(C)(CC)C(=O)O (configuration not stated) | inactive: 1.16% |
| CP(=O)(Nc1ccc(SC(F)(F)F)cc1)Oc1ccc(F)cc1 (configuration not stated) | inactive: 4.56% |
| Cc1ccccc1NP(C)(=O)Nc1ccccc1C | inactive: -6.75% |
| CP(=O)(Nc1ccc2c(c1)OCCO2)Oc1ccccc1 (configuration not stated) | inactive: -2.49% |
| CP(=O)(Nc1ccccc1F)Oc1ccccc1 (configuration not stated) | inactive: 0% |
| CC(C)c1ccc(OP(C)(=O)Nc2ccc(SC(F)(F)F)cc2)cc1 (configuration not stated) | inactive: -6.35% |
| COc1ccc2c(c1O)-c1c(O)c(OC)cc3c1[C@H](C2)[N+](C)(C)CC3.O=[N+]([O-])c1cc([N+](=O)[O-])c([O-])c([N+](=O)[O-])c1[O-] | inactive: 2% |
| O=C(OC1CN2CCC1CC2)c1ccc([N+](=O)[O-])cc1 (configuration not stated) | inactive: 16.7% |
| O=C(OCCN1CCN(CCOCc2ccccc2)CC1)C(O)(c1ccccc1)c1ccccc1 | inactive: 3.02% |
| CCOC(=O)c1ccc(NP(C)(=O)Oc2ccc(F)cc2)cc1 (configuration not stated) | inactive: 7.64% |
| COc1ccc(OP(C)(=O)Nc2ccc(SC(F)(F)F)cc2)cc1 (configuration not stated) | inactive: -1.72% |
| CP(=O)(Nc1ccccc1)Oc1ccc(F)cc1 (configuration not stated) | inactive: -12.5% |
| O=[N+]([O-])c1cc([N+](=O)[O-])c(OC2CCCCC2O)c([N+](=O)[O-])c1 (configuration not stated) | inactive: -3.38% |

| SMILES | inhibition |
| --- | --- |
| CCCCCOc1ccc(NP(C)(=O)Oc2ccc(Cl)cc2Cl)cc1 (configuration not stated) | inactive: -2.92% |
| CCN(CC)CCCOC(=O)C(O)(c1ccccc1)C1CCCCC1 (configuration not stated) | inactive: 4.05% |
| O=C(O)c1cccc(Nc2c([N+](=O)[O-])cc([N+](=O)[O-])cc2[N+](=O)[O-])c1 | inactive: -3.24% |
| CC1=NCCc2c1[nH]c1ccccc21.O=[N+]([O-])c1cc([N+](=O)[O-])c(O)c([N+](=O)[O-])c1 | inactive: -3.17% |
| CCOC(=O)c1ccc(NP(C)(=O)Oc2cc(C)cc(C)c2)cc1 (configuration not stated) | inactive: 4.72% |
| Cc1cc(C)cc(OP(C)(=O)Nc2ccc(C)cc2C)c1 (configuration not stated) | inactive: 6.01% |
| COc1ccccc1OP(C)(=O)Nc1cccc(Br)c1 (configuration not stated) | inactive: 2.76% |
| Cc1ccc(C)c(NP(C)(=O)Oc2ccccc2)c1 (configuration not stated) | inactive: 7.87% |
| Cc1cc(C)cc(OP(C)(=O)Nc2ccccn2)c1 (configuration not stated) | inactive: 4.62% |
| CP(=O)(Nc1cccc(Br)c1)Oc1ccccc1 (configuration not stated) | inactive: 3.13% |
| O=[N+]([O-])c1cc([N+](=O)[O-])c(-n2nnc3ccccc32)c([N+](=O)[O-])c1 | inactive: 1.39% |
| Cc1nc2ccc3ccccc3c2s1.O=[N+]([O-])c1cc([N+](=O)[O-])c(O)c([N+](=O)[O-])c1 | inactive: -5.66% |
| O=[N+]([O-])c1cc([N+](=O)[O-])c(-c2cnn(-c3ccccc3)c2)c([N+](=O)[O-])c1 | inactive: 0.0804% |
| CC1=C2N=C(C=C3N=C(C(C)=C4[N-][C@@](C)([C@@H]5N=C1[C@](C)(CCC(=O)NC[C@@H](C)OP(=O)([O-])O[C@H]1[C@@H](O)[C@@H](n6cnc7cc(C)c(C)cc76)O[C@@H]1CO)[C@H]5CC(N)=O)[C@@](C)(CC(N)=O)[C@@H]4CCC(N)=O)[C@@](C)(CC(N)=O)[C@@H]3CCC(N)=O)C(C)(C)[C@@H]2CCC(N)=O.[C-]#N.[Co+3] | active: 67.8% |
| O=[N+]([O-])c1cc([N+](=O)[O-])c(Nc2nnnn2CCO)c([N+](=O)[O-])c1 | inactive: -6.65% |
| CCOC(=O)C(CC)C1=NC(C)(C)Cc2ccccc21.O=[N+]([O-])c1cc([N+](=O)[O-])c(O)c([N+](=O)[O-])c1 (configuration not stated) | inactive: 3.03% |
| CCCOc1ccc(NP(C)(=O)Oc2ccc(Cl)cc2)cc1 (configuration not stated) | inactive: -9.05% |
| CP(=O)(Nc1ccc(SC(F)(F)F)cc1)Oc1ccccc1 (configuration not stated) | inactive: -4.59% |
| COc1ccccc1OP(C)(=O)Nc1c(C)cccc1C (configuration not stated) | inactive: 2.27% |
| CN1CCCCC1COC(=O)C1(O)c2ccccc2CCc2ccccc21 (configuration not stated) | inactive: -0.332% |
| CP(=O)(Nc1ccccc1Br)Oc1ccccc1 (configuration not stated) | inactive: 1.07% |
| COc1ccccc1OP(C)(=O)Nc1ccccc1 (configuration not stated) | inactive: 0.27% |

| SMILES | inhibition |
| --- | --- |
| CP(=S)(Nn1cnnc1)Oc1ccccc1 (configuration not stated) | inactive: -8% |
| CP(=O)(NC(=O)Nc1ccccc1)Oc1ccccc1 (configuration not stated) | inactive: 14.2% |
| CCc1ccc(OP(C)(=O)N2CCN(c3ccc([N+](=O)[O-])cc3)CC2)cc1 (configuration not stated) | inactive: 5.67% |
| Cc1cc(C)cc(OP(C)(=O)Nc2ccc(SC(F)(F)F)cc2)c1 (configuration not stated) | inactive: 6.2% |
| Cc1cccc(C)c1OP(C)(=O)Nc1ccc(SC(F)(F)F)cc1 (configuration not stated) | inactive: -7.13% |
| CP(=O)(Nc1ccc(SC(F)(F)F)cc1)Oc1ccc(Cl)cc1 (configuration not stated) | inactive: 0.763% |
| CP(=O)(Oc1ccccc1)OC(c1ccccc1)C(F)(F)F (configuration not stated) | inactive: 3.53% |
| CP(=O)(Nc1ccccn1)Oc1ccc(Cl)cc1 (configuration not stated) | active: 68.1% |
| CCOC(=O)c1ccc(NP(C)(=O)Oc2ccc(OC)cc2)cc1 (configuration not stated) | inactive: -1.06% |
| O=[N+]([O-])c1cc([N+](=O)[O-])c(O)c([N+](=O)[O-])c1.c1ccc(Oc2ccncc2)cc1 | inactive: 6.67% |
| CCOP(C)(=S)SCC(=O)NC(C)C(=O)O (configuration not stated) | inactive: -1.31% |
| CCN(CC)CCCOC(=O)C(O)(c1ccccc1)c1ccccc1 | inactive: 0.591% |
| CC(C)(C)c1ccc(OP(C)(=O)Nc2ccc(SC(F)(F)F)cc2)cc1 (configuration not stated) | inactive: 3.32% |
| Cc1cccc(C)c1OP(C)(N)=O (configuration not stated) | inactive: 10% |
| O=[N+]([O-])c1cc([N+](=O)[O-])c(Nc2cccnc2)c([N+](=O)[O-])c1 | inactive: 17.7% |
| Cc1cc(C)cc(OP(C)(N)=O)c1 (configuration not stated) | inactive: -7.44% |
| COc1ccccc1OP(C)(=O)Nc1cc(Cl)ccc1C (configuration not stated) | inactive: 1.13% |
| COc1ccc(OP(C)(=O)Nc2cccc(F)c2)cc1 (configuration not stated) | inactive: 0.0295% |
| COc1ccccc1OP(C)(=O)Nc1ccc(C)cc1 (configuration not stated) | inactive: 4.58% |
| Cc1ccc(NP(C)(=O)Oc2ccccc2)c(C)c1 (configuration not stated) | inactive: 1.8% |
| CCOC(=O)c1ccc(NP(C)(=O)Oc2ccccc2)cc1 (configuration not stated) | inactive: 0.347% |
